Drawing on patent publication US11542261B2, “Substituted Imidazo[1,2-a]-pyridines as IRAK 1/4 and FLT3 inhibitors” (CHILDREN'S HOSPITAL MEDICAL CENTER, priority 2016, dated 2023), this text covers IC50 for one molecule.

This assay deals with MLL-AF9 FLT3-ITD cells. Particulars: read-out: IC50 of Venetoclax in the presence of 0.2 nM 1481.

Turning to `CC1(C)CCC(CN2CCN(c3ccc(C(=O)NS(=O)(=O)c4ccc(NCC5CCOCC5)c([N+](=O)[O-])c4)c(Oc4cnc5[nH]ccc5c4)c3)CC2)=C(c2ccc(Cl)cc2)C1` [Venetoclax, venetoclax], the IC50 (usually the concentration that gives 50% inhibition) is 63.8 nM.
